Test results: patent EP0273990B1, “Novel organic peroxides and their use in the preparation of epoxide groups containing (co)polymers” (AKZO N.V., priority 1986, dated 1988)

Details: half-life period of decomposition 10 hours; 0,1 M solution in chlorobenzene

Molecule | Temperature (°C) for t½ of 10 hours [°C]
C=CC(C)(C)OOC(=O)OCCCCCCOC(=O)OOC(C)(C)C=C | 94
C=CC(C)(C)OOC(=O)OCCOCCOC(=O)OOC(C)(C)C=C | 72
C=CC(C)(C)OOC(C)(C)C | 110
C=CC(C)(C)OOC(C)(C)C=C | 107
C=CC(C)(C)OOC(C)(C)c1ccc(C(=C)C)cc1 | 114
C=CC(C)(C)OOC1(OOC(C)(C)C=C)CCCCC1 | 74
0-(2-ethylhexyl) 0,0-(2-methyl-3-buten-2-yl) monoperoxycarbonate | 75
0-(4-t-butylcyclohexyl) 0,0-(2-methyl-3-buten-2-yl) monoperoxycarbonate | 76
0-(n-hexadecyl) 0,0-(2-methyl-3-buten-2-yl) monoperoxycarbonate | 64
0-(n-octyl) 0,0-(2-methyl-3-buten-2-yl) monoperoxycarbonate | 80
0-allyl 0,0-(2-methyl-3-buten-2-yl) monoperoxycarbonate | 67
0-isopropyl 0,0-(2-methyl-3-buten-2-yl) monoperoxycarbonate | 76
